IC50 data for one compound are collected here from US20250049817A1, “JAK INHIBITOR WITH A VITAMIN D ANALOG FOR TREATMENT OF SKIN DISEASES” (INCYTE CORPORATION, priority 2020, published 2025).

For the experiment, the target named is human JAK1 (a.a. 837-1142) (Homo sapiens, UniProt P23458). Description: In vitro JAK kinase assay (HTRF), JAK1. It is filed as biochemical. The following applies: 1 mM ATP.

As to `CN(C)Cc1cc(F)cc(OC2CCN(CC(CC#N)n3cc(-c4ncnc5[nH]ccc45)cn3)CC2)c1` (single isomer, unassigned) [Compound 14, 4-(4-{3-[(dimethylamino)methyl]-5-fluorophenoxy}piperidin-1-yl)-3-[4-(7H-pyrrolo[2,3-d]pyrimidin-4-yl)-1H-pyrazol-1-yl]butanenitrile], the IC50 (in general, the midpoint of a concentration-inhibition curve) is less than 10 nM.
